Values of other authors as cited in patent US12303497B2, “Anti-androgens for the treatment of metastatic castration-sensitive prostate cancer” (priority 2019, dated 2025).

Tested on: prostate cancer cells rendered castration resistant via overexpression of AR
Details: literature; cited from earlier work

## CNC(=O)c1ccc(N2C(=S)N(c3cnc(C#N)c(C(F)(F)F)c3)C(=O)C23CCC3)cc1F [Apalutamide, 4-[7-(6-cyano-5-trifluoromethylpyridin-3-yl)-8-oxo-6-thioxo-5,7-diazaspiro[3.4]oct-5-yl]-2-fluoro-N-methylbenzamide]
  Agonist activity in the context of AR overexpression: lacks the partial agonist activity
